# The list shows a part of the results, in another mix than the full data. The source made the active and inactive calls. No stated cut-off is given here; in the data, active means binding response below about 49% or above about 150%; inactive means in between.
# Chains of the proteins cited; added tags and fusions are not shown.
# UniProt P09471, whole entry, looked up: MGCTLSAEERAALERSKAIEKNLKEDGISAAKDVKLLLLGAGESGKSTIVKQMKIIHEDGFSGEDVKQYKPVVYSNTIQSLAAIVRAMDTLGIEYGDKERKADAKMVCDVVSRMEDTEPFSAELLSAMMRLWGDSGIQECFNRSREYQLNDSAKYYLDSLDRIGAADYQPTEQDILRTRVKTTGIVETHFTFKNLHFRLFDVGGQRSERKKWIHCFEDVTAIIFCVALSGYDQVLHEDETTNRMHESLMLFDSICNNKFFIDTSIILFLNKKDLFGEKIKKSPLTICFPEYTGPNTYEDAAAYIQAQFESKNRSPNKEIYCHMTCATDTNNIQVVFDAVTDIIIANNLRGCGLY
# Target: Guanine nucleotide-binding protein G(o) subunit alpha (Homo sapiens) (UniProt P09471)
# Experiment: RGS4-Galphao interaction inhibitors and enhancers – biochemical, multiplexed bead flow cytometry, primary screen (AID 1415);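 further: fluorescent Galphao activated with aluminum fluoride binding bead-coupled RGS4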
# Settings: at 10 µM, actives lie on both sides
row,SMILES,binding response (% of control)
1,Cc1ccc(OCC(=O)OC2CN3CCC2CC3)cc1 (stereo not drawn),inactive: 93.1%
2,O=P1(Nc2ccc(Br)cn2)COc2ccccc2OC1,inactive: 103%
3,Cc1nn(-c2ccccc2)c2c1P(=O)(N1CCOCC1)N(C)C(c1ccccc1)=N2 (stereo not drawn),inactive: 102%
4,CC1CCC(C(C)C)C(OP(=O)(Nc2ccccn2)c2ccccc2)C1 (stereo not drawn),inactive: 100%
5,CN(C)C1(CNC(=O)c2ccc(S(C)(=O)=O)cc2)CCCCC1,inactive: 106%
6,O=C(/C=C/c1ccccc1)OC1CN2CCC1CC2 (stereo not drawn),inactive: 102%
7,CN(C(=O)Cc1ccc(Cl)c(Cl)c1)[C@@H]1CCCC[C@H]1N1CCCC1,inactive: 100%
8,CC(C)/C=N\N=C(\N)N[N+](=O)[O-],inactive: 94.1%
9,O=[As](O)(c1ccccc1Br)c1ccccc1Br,inactive: 97.8%
10,O=P1(Nc2ccccn2)COc2ccccc2OC1,inactive: 100%
11,CCOP(=O)(Nc1ccc(C)cn1)OCC,inactive: 96.3%
12,Clc1n[nH]nc1-c1nn[nH][15n]1,inactive: 96.9%
13,CC(C)(C)C(=O)NC(Sc1ncccn1)C(Cl)(Cl)Cl (stereo not drawn),inactive: 98.2%
14,Nc1cccc2c([As](=O)(O)O)cccc12,active: 18.1%
15,Cc1ccc(NCCc2c([N+](=O)[O-])cc([N+](=O)[O-])cc2[N+](=O)[O-])cc1,inactive: 93.7%
16,CCCOP(=S)(Nc1nc(N)cc(=O)[nH]1)OCCC,inactive: 99.6%
17,COc1cc(C2NCCC3(OCCO3)C2(C)C)cc(OC)c1OC (stereo not drawn),inactive: 109%

row,SMILES,binding response (% of control)
1,CCOP(=O)(Nc1cccc2ccccc12)OCC,inactive: 101%
2,O=C(OC1CN2CCC1CC2)c1ccc(Cl)cc1 (stereo not drawn),inactive: 96.8%
3,O=[As](O)(O)c1cccnc1,inactive: 103%
4,COc1cc(C(=O)NCC2(N3CCOCC3)CCCCC2)cc(Cl)c1OC(C)C,inactive: 104%
5,Cc1cccc(OCC(=O)OC2CN3CCC2CC3)c1 (stereo not drawn),inactive: 98.3%
6,O=[As](O)(c1cccc(O)c1)c1cccc(O)c1,inactive: 105%
7,NC(=O)Nc1ccc([As](=O)(O)O)cc1,inactive: 101%
8,CN(C(=O)Cc1ccccc1)[C@@H]1CC[C@]2(CCCO2)C[C@H]1N1CCCC1,inactive: 77.8%
9,CCOP1(=S)c2c(C)nn(CCC#N)c2N=C(c2ccc(F)cc2)N1C (stereo not drawn),inactive: 105%
10,O=[N+]([O-])c1ccc2c(c1)nnn2O,inactive: 117%
11,CCOP1(=S)c2c(C)nn(CCC#N)c2N=C(c2ccccc2F)N1C (stereo not drawn),inactive: 102%
12,O=P(Nc1nccs1)(Oc1ccccc1)Oc1ccccc1,inactive: 92.8%
13,O=P(Nc1nccs1)(c1ccccc1)c1nc2ccccc2s1 (stereo not drawn),inactive: 100%
14,CS(=O)(=O)c1cc([N+](=O)[O-])c2no[n+]([O-])c2c1,inactive: 87.5%
15,O=C(O)COc1ccc([As](=O)(O)O)cc1[N+](=O)[O-],inactive: 99.8%
16,Nc1ccccc1[As](=O)(O)c1ccccc1,inactive: 105%

# Source: PubChem BioAssay AID1415 (NMMLSC, 2008)
